The record followed here is PubChem BioAssay AID602125 (The Scripps Research Institute Molecular Screening Center, 2011).

Molecules are shown by their SMILES. The list shows a part of the results, in another mix than the full data. The source made the active and inactive calls. Rule as the data show it: active = inhibition above about 6.5%; inactive = the rest.

The nature of this experiment: GFP fluorescence inhibitors and quenchers, artefact control for Rin1-Abl interaction inhibitor project, biochemical (AID 602125).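 Also: ABL1-eGFP fusion protein alone without its partner RIN1-SBP; 0% = protein with vehicle and 100% = wells lacking protein.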 To be noted: inhibitors/quenchers counterscreen, at 6.75 µM, hits give high values. For orientation: A counterscreen serves to expose hits that act by an unwanted route or on another target.
In general, inhibition refers to the drop in the measured response relative to a control, in per cent. Regarding `O=c1[nH]c2ccccc2n1C1CCN(C(c2cccs2)c2nnnn2C2CCCCC2)CC1` (stereo unspecified), the inhibition is inactive: -0.29%.

With `COc1cccc(C(c2nnnn2C2CCCCC2)N2CCC(n3c(=O)[nH]c4ccccc43)CC2)c1OC` (stereo unspecified), the inhibition is inactive: -1.2%.

With `CCC(c1nnnn1C1CCCCC1)N1CCC(n2c(=O)[nH]c3ccccc32)CC1` (stereo unspecified), the inhibition is inactive: 0.13%.

As to `CCC(c1nnnn1C1CCCC1)N1CCC(n2c(=O)[nH]c3ccccc32)CC1` (stereo unspecified), the inhibition was inactive: -0.81%.

In the case of `O=c1[nH]c2ccccc2n1C1CCN(C(c2cc3ccccc3o2)c2nnnn2C2CCCCC2)CC1` (stereo unspecified), the inhibition was inactive: -0.17%.

Regarding `CCC(c1nnnn1C(C)(C)C)N1CCC(n2c(=O)[nH]c3ccccc32)CC1` (stereo unspecified), the inhibition is inactive: -1.58%.
